Results reported in patent publication EP1200059B1, “SKIN CARE COMPOSITION” (UNILEVER PLC, priority 1999, dated 2001).

Biological target: T1, lecithin retinol acyl transferase (LRAT) (Bos taurus, UniProt Q9BGL2)
T1 sequence (Q9BGL2 1-230): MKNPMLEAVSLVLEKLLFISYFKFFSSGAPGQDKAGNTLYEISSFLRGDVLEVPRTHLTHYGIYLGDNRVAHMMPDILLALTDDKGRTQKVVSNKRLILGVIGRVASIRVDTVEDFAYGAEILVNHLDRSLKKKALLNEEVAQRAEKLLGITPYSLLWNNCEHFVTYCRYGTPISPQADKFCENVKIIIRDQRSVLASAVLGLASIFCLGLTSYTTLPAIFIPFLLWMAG
Test: in vitro Microsomal Assay of retinol esterification, LRAT catalysed (retinyl laurate formation)
Settings: read-out: % INHIBITION, LRAT

CC(C)(O)CCCC1=CCC(C=O)CC1 (stereo not shown) [Lyral]
inhibition at 100 µM: 71%
